Test results as given in patent US8686184B2, “Neprilysin inhibitors” (Theravance, Inc., priority 2011, dated 2014).

The chains behind the UniProt entries cited, without tags or fusion partners. Residues count along the entry.
UniProt P08473, 52-750 limits assumed: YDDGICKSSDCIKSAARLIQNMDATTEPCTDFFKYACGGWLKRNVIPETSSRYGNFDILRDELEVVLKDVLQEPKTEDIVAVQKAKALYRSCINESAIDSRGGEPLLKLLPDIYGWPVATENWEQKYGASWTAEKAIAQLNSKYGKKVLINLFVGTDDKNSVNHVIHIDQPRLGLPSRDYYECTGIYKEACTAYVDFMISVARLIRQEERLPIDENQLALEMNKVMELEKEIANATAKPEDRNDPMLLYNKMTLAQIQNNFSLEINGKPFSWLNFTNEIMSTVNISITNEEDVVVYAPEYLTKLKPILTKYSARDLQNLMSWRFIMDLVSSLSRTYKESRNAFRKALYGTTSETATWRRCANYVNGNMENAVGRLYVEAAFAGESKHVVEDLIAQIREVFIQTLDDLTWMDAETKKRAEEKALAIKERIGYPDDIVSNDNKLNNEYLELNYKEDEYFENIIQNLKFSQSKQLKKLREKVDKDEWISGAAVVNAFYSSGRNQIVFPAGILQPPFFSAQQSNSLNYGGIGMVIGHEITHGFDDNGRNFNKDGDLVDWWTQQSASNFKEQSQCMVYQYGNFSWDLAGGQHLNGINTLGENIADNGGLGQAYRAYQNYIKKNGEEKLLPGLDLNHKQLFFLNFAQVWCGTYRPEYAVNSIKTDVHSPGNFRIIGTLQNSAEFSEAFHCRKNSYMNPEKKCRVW

Molecular target: human neprilysin (EC 3.4.24.11; NEP) (Homo sapiens, UniProt P08473)
Assay: In vitro enzyme inhibition assay at human NEP (fluorogenic peptide substrate)
Settings: recombinant human NEP; 37° C.; substrate Mca-D-Arg-Arg-Leu-Dap-(Dnp)-OH 10 μM; values given as ranges
Method: In vitro Assays for the Quantitation of Inhibitor Potencies at Human and Rat NEP, and Human ACE
The inhibitory activities of compounds at human and rat neprilysin (EC 3.4.24.11; NEP) and human angiotensin converting enzyme (ACE) were determined using in vitro assays as described below.
Recombinant human NEP and recombinant human ACE were obtained commercially (R&D Systems, Minneapolis, Minn., catalog numbers 1182-ZN and 929-ZN, respectively). The fluorogenic peptide substrate Mca-D-Arg-Arg-Leu-Dap-(Dnp)-OH (Medeiros et al. (1997) Braz. J. Med. Biol. Res. 30:1157-62; Anaspec, San Jose, Calif.) and Abz-Phe-Arg-Lys(Dnp)-Pro-OH (Araujo et al. (2000) Biochemistry 39:8519-8525; Bachem, Torrance, Calif.) were used in the NEP and ACE assays respectively.
The assays were performed in 384-well white opaque plates at 37° C. using the fluorogenic peptide substrates at a concentration of 10 μM in Assay Buffer (NEP: 50 mM HEPES, pH 7.5, 100 mM NaCl, 0.01% polyethylene glycol sorbitan monolaurate (Tween-20), 10 μM ZnSO4; ACE: 50 mM HEPES, pH 7.5, 100 mM NaCl, 0.01% Tween-20, 1 μM ZnSO4).
Test compounds were assayed over the range of concentrations from 10 μM to 20 pM. Test compounds were added to the enzymes and incubated for 30 minute at 37° C. prior to initiating the reaction by the addition of substrate. Reactions were terminated after 20 minutes of incubation at 37° C. by the addition of glacial acetic acid to a final concentration of 3.6% (v/v).
Plates were read on a fluorometer with excitation and emission wavelengths set to 320 nm and 405 nm, respectively Inhibition constants were obtained by nonlinear regression of the data using the equation (GraphPad Software, Inc., San Diego, Calif.): v=v0/[1+(I/K′)] where v is the reaction rate, v0 is the uninhibited reaction rate, I is the inhibitor concentration and K′ is the apparent inhibition constant.
Compounds of the invention were tested in this assay and found to have pKi values at human NEP as follows.

Structure (SMILES) | pKi values at human NEP
CC1=NN(c2ccc(C(=O)N[C@H](Cc3ccccc3Cl)[C@@H](O)C(=O)O)cc2)C(=O)C1 | 7.0-7.9
CC1=NN(c2ccc(C(=O)N[C@H](Cc3ccccc3Cl)[C@@H](O)C(=O)NO)cc2)C(=O)C1 | 8.0-8.9
O=C(N[C@H](Cc1ccccc1)[C@@H](O)C(=O)O)c1ccc(F)c(-c2ccccc2C(=O)O)c1 | 8.0-8.9

Results, then the molecule that gave them:

pKi values at human NEP | Structure (SMILES)
≧9.0 | O=C(CCCc1ccccc1C(=O)O)N[C@H](Cc1ccccc1Cl)[C@@H](O)C(=O)O
8.0-8.9 | O=C(CCCc1ccccc1C(=O)O)N[C@H](Cc1ccccc1)[C@@H](O)C(=O)O
8.0-8.9 | O=C(CCCc1ccccc1C(=O)O)N[C@H](Cc1ccccc1C(F)(F)F)[C@@H](O)C(=O)O
